We go through 1 substance from publication PMC4696496.

This assay addresses polymerised, Taxol-stabilised microtubules of bovine brain tubulin (bovine) (UniProt Q6B856). The experiment in a line: co-sedimentation; polymerised, Taxol-stabilised bovine brain tubulin (~5 µg) incubated with His6-tagged WT or mutant fascin (1:1 ratio) in GTB (50 mM PIPES pH 6.8, 1 mM EGTA, 1 mM MgCl2) for 30 min at 25°C; 20,000 g for 30 min at 25°C; supernatant and pellet on SDS-PAGE, silver staining, densitometry.

With “His6-tagged wild-type human fascin (from UniProt Q16658 1-493) (natural protein)”, the percent of fascin in the pellet amounted to 25%.
